# In the library only some 2.8% were active in any assay of this set; here they are far more common.
# PglD inh: inhibitors of Campylobacter jejuni PglD acetyltransferase. 360,000 compounds, 0.098% hits. purified PglD enzyme, DTNB colorimetric CoA detection. inhibition, % at 12.5 µM; in the data active = inhibition above about 16%, passing the limit was not always enough; inconclusive = no clear call, values can overlap the other calls
# esBAF inh: SWI/SNF esBAF complex inhibition; mouse ES cells, Bmi1-luciferase knock-in reporter, 24 h; 100% = twice the neutral-well signal; 350,000 compounds, 2% hits; reporter increase, % at 12.5 µM; in the data active = activation above about 40%; inconclusive = no clear call, values can overlap the other calls;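 note: 0% = median of the plate's neutral control wells and 100% = double that signal; a rise in the Bmi1 reporter signal indicates esBAF inhibition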
# Yeast UUG start: modulators of start codon recognition fidelity in yeast. S. cerevisiae UUG-firefly luciferase reporter, luminescence/redox ratio. activity score, % at 18.7 µM. 0.13% of 350,000 active. AID 602363;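 active = replicate mean at a twofold rise or more, about +100% in these data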;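 also: firefly luciferase made from a UUG start codon reports start codon fidelity; reporter light over untreated wells divided by growth signal over untreated wells; some hits fall short of that in this replicate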
# Wnt bcat act: activators of Wnt/beta-catenin signaling. Wnt/beta-catenin reporter cell assay, activator, plate reader. activation, % at 9.35 µM. 300,000 compounds, 1.2% hits. AID 743398; in the data active = activation above about 30%, passing the limit was not always enough; inconclusive = no clear call, values can overlap the other calls;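 note: 0% = neutral control wells and 100% = positive control wells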
# miR122 inh: inhibitors of miR-122 in Huh7 cells; AID 602342; Huh7 miR-122 Renilla luciferase sensor, 48 h; neutral wells = 0, positive control = 100; 340,000 compounds, 0.3% hits; activation (reporter increase), % at 12.5 µM;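 active = mean replicate activation score at least 90 and every replicate individually at or above 90; inconclusive = only one of the two criteria met; inactive = neither criterion met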;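 note: higher luciferase means less miR-122 activity so hits act as miR-122 inhibitors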
# MITF TRPM1 HTS: increases MITF-driven TRPM1 promoter luciferase signal | AID 588334 | activation, % at 12.5 µM | 300,000 compounds, 0.75% hits | SK-MEL-5 TRPM1-promoter luciferase, 24 h; % of positive control, neutral wells = 0;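 active = mean activation of at least 80% with every replicate also reaching 80%; inconclusive = mean reaches 80% but some replicate falls short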;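 note: 0% = neutral control wells and 100% = parthenolide positive control wells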
# Active calls of the source: *; ? = inconclusive; nt = no result given; [ ] = another dose, or the depositor's remark.
# Preview:
SMILES,PglD inh,esBAF inh,Yeast UUG start,Wnt bcat act,miR122 inh,MITF TRPM1 HTS
CCOc1ccc(CCNC(=O)/C=C/c2ccco2)cc1OCC,-2.4,2.4,-12.9,34.3*,6.1,19.6
O=C(CSc1nnc(-c2ccc(O)cc2)o1)Nc1ccc2c(c1)OCCO2,-2.2,-10.4,-14.3,nt,nt,49.9

# The listing, from the first entry:
SMILES,PglD inh,esBAF inh,Yeast UUG start,Wnt bcat act,miR122 inh,MITF TRPM1 HTS
CCOc1ccc(CCNC(=O)/C=C/c2ccco2)cc1OCC,-2.4,2.4,-12.9,34.3*,6.1,19.6
O=C(CSc1nnc(-c2ccc(O)cc2)o1)Nc1ccc2c(c1)OCCO2,-2.2,-10.4,-14.3,nt,nt,49.9
Cc1cccc(NC(=O)CSc2nnc(-c3ccccc3C)o2)c1,-9.8,44.5*,-18.8,nt,-6.2,79.7
O=C(CSc1nnc(-c2cccnc2)o1)Nc1ccccc1F,2.8,5.1,-11.4,39.6*,nt,51.6
COc1cccc(NC(=O)CSc2nnc(-c3ccc(C)cc3)o2)c1,-2.9,59.7*,-11.1,20.0,nt,45.1
O=C(CSc1nnc(-c2ccc(O)cc2)o1)Nc1cccc(O)c1,3.4,12.2,-5.6,33.5*,1.8,66.4
Cc1ccc(NC(=O)CSc2nnc(-c3ccncc3)o2)cc1,0.3,7.4,-5.8,4.9,-2.4,15.6
CC(=O)N(C)C[C@H]1Oc2ncc(C#Cc3ccncc3)cc2C(=O)N([C@@H](C)CO)C[C@H]1C,-2.9,-4.9,-3.8,nt,-6.4[16.7 µM],nt
CC(C)c1cn(CC[C@@H]2CC[C@@H](NC(=O)C3CCC3)[C@H](CO)O2)nn1,14.5,-5.8,-5.6,nt,nt,nt
O=C(C[C@@H]1C=C[C@@H](NC(=O)c2ccncc2)[C@@H](CO)O1)NCCc1ccncc1,-2.1,3.1,7.4,nt,nt,nt
O=C(C[C@H]1C[C@H]2c3cc(NS(=O)(=O)c4ccc(F)cc4)ccc3O[C@H]2[C@@H](CO)O1)NCc1ccncc1,0.9,-2.2,-24.4,nt,3.6[16.7 µM],nt
COc1ccccc1NC(=O)CSc1nnc(-c2ccc(C)cc2)o1,4.0,-12.6,1.9,57.9*,6.5,nt
COc1ccc(C)cc1NC(=O)CSc1nnc(-c2ccc(Br)cc2)o1,0.5,-2.6,-4.0,-1.3,-4.0,35.2
O=C(CSc1ncc(-c2ccccc2)[nH]1)Nc1ccccc1F,nt,?,nt,18.7,2.3,88.2*
N#CCc1ccc(NC(=O)Nc2cccc(Cl)c2)cc1,nt,-0.2,nt,nt,-2.9,82.6*
O=C(Nc1cccc(Cl)c1)Nc1nc(-c2ccccc2)cs1,nt,nt,nt,-1.4,nt,-3.1
O=C(Nc1cccc(Cl)c1)NC1CC2CCC1C2 (centres undefined),-0.7,50.0*,-5.5,9.1,nt,19.0
O=C(Nc1cccc(F)c1)Nc1cccc(Cl)c1,0.6,55.0*,-5.6,23.6,nt,59.9
O=C(Nc1cccc(Cl)c1)N[C@H]1CC[C@H](CCNC(=O)C2CC2)O[C@H]1CO,-1.8,0.7,15.1,nt,nt,nt
Cc1csc(NC(=O)Nc2cccc(Cl)c2)n1,-0.2,88.3*,-31.2,48.6*,7.5,64.5
C[C@H]1CN([C@@H](C)CO)C(=O)c2cc(NC(=O)Cc3ccccc3)ccc2O[C@H]1CN(C)S(=O)(=O)c1cccs1,-1.0,1.1,nt,nt,3.6[16.7 µM],nt
Cc1ccccc1S(=O)(=O)N1[C@@H](C#N)[C@@H](c2ccc(-c3ccc(F)cc3)cc2)[C@@H]1CO,-2.9,1.2,-4.7,nt,nt,nt
COc1cccc(-c2ccc3c(c2)O[C@H](CN(C)Cc2cncnc2)[C@@H](C)CN([C@H](C)CO)S3(=O)=O)c1,-0.5,-0.4,-13.7,nt,-2.0[16.7 µM],nt
CC(C)C#Cc1ccc2c(c1)O[C@H](CN(C)Cc1cccnc1)[C@H](C)CN([C@H](C)CO)S2(=O)=O,-2.2,4.4,6.0,nt,21.8[16.7 µM],nt
Cc1cccnc1NC(=O)Nc1cccc(Cl)c1,-3.7,?,-8.6,25.5,-9.9,90.5*

# Exported with two lines to a compound: entries from further up
# The line under a structure holds: PglD inh, esBAF inh, Yeast UUG start, Wnt bcat act, miR122 inh, MITF TRPM1 HTS
- O=C(Nc1cccc(Cl)c1)N[C@H]1CC[C@H](CCNC(=O)C2CC2)O[C@H]1CO
 : -1.8, 0.7, 15.1, nt, nt, nt
- Cc1csc(NC(=O)Nc2cccc(Cl)c2)n1
 : -0.2, 88.3*, -31.2, 48.6*, 7.5, 64.5
- C[C@H]1CN([C@@H](C)CO)C(=O)c2cc(NC(=O)Cc3ccccc3)ccc2O[C@H]1CN(C)S(=O)(=O)c1cccs1
 : -1.0, 1.1, nt, nt, 3.6[16.7 µM], nt
- Cc1ccccc1S(=O)(=O)N1[C@@H](C#N)[C@@H](c2ccc(-c3ccc(F)cc3)cc2)[C@@H]1CO
 : -2.9, 1.2, -4.7, nt, nt, nt

# (list continues)
SMILES,PglD inh,esBAF inh,Yeast UUG start,Wnt bcat act,miR122 inh,MITF TRPM1 HTS
O=C(Nc1ccc2c(c1)OCO2)c1cccc(F)c1,-0.6,nt,-8.7,?,-2.8,71.3
O=C(Nc1cccc(Cl)c1)Nc1cccc(Cl)c1,3.2,5.0,-23.0,4.0,-5.1,46.0
O=C(Nc1cccc(F)c1)Nc1ccc2c(c1)OCO2,-4.8,49.6*,-14.1,?,-8.7,?
C/C(=N\NC(=O)c1ccncc1)c1cccs1,nt,nt,nt,-1.3,nt,13.4
C/C(=N/N=C(/C)c1cccs1)c1cccs1,-4.1,47.6*,-20.5,15.1,nt,nt
CCS(=O)(=O)NCC[C@@H]1CC[C@@H](NS(=O)(=O)c2cccc(Cl)c2)[C@H](CO)O1,2.5,1.7,-24.7,nt,-9.3[16.7 µM],nt
O=[N+]([O-])c1ccc2cn(-c3ccccc3)nc2c1,-4.1,61.0*,-8.9,25.9,-2.3,54.0
O=Cc1cn(-c2ccccc2)nc1-c1cccc([N+](=O)[O-])c1,6.7,58.8*,-12.8,0.8,-5.8,nt
CC(=O)N1[C@H](CO)[C@H](c2ccccc2)[C@H]1CNC(=O)CN1CCOCC1,2.5,-1.4,-8.5,nt,50.0[16.7 µM],nt
CN1CCN(C(=O)C[C@H]2CC[C@H]3[C@@H](COC[C@H](O)CN3C(=O)Cc3ccccc3)O2)CC1,-0.4,-0.9,nt,nt,-5.7[16.7 µM],nt
Cc1nc2ccc(-c3nc4ccccc4o3)cc2[nH]1,8.0,-0.9,-30.6,nt,-6.6,59.4
c1ccc2nc(-c3nc4ccccc4o3)ccc2c1,-1.2,-5.2,-46.0,2.6,2.3,-51.2
Clc1ccc2oc(-c3ccccn3)nc2c1,-0.2,nt,-31.6,nt,11.3,19.3
c1ccc(-c2nc3ccccc3o2)nc1,0.9,46.4*,3.4,nt,8.2,34.4
Nc1ccc2oc(-c3ccccn3)nc2c1,-4.6,30.4,-23.8,44.0*,-2.2,47.5
Cc1ccnc2ccc(-c3nc4ccccc4o3)cc12,1.1,23.1,6.8,67.2*,1.3,8.0
C[C@H]1CN([C@@H](C)CO)C(=O)c2ccccc2-c2ccccc2CO[C@H]1CN(C)Cc1ccc2c(c1)OCCN2C,-2.3,-2.4,nt,nt,nt,nt
COc1ccccc1CNC(=O)C[C@@H]1CC[C@@H]2[C@H](COC[C@@H](O)CN2Cc2ccccc2)O1,-1.0,-2.6,nt,nt,3.4[16.7 µM],nt
CC(=O)Nc1ccccc1C(=O)C(=O)Nc1ccc(F)c(Cl)c1,3.1,56.3*,-33.9,1.8,4.2,nt
CC(=O)Nc1ccccc1C(=O)C(=O)Nc1ccc(C)c(C)c1,2.2,33.1,-5.8,nt,-6.6,72.4
CCc1ccc(NC(=O)C(=O)c2ccccc2NC(C)=O)cc1,-0.1,26.6,-32.5,42.5*,0.7,nt
COc1cccc(CN2[C@H](CO)[C@H]3c4ccccc4N(C(=O)c4ccncc4)C[C@H]32)c1,1.7,0.0,-4.1,nt,4.9[16.7 µM],nt
CN(C)c1ccc(C(=O)N2CCN(c3cc(C(F)(F)F)nc4ccccc34)CC2)cc1,-4.5,0.9,-8.8,54.7*,-4.3,12.2
Cc1ccccc1-c1ccc2c(c1)O[C@H](CN(C)C)[C@@H](C)CN([C@@H](C)CO)S2(=O)=O,3.8,0.1,-8.8,nt,-0.7[16.7 µM],nt
Brc1ccc(-c2csc(NNC3=NCCCCC3)n2)cc1,12.3,21.4,-12.4,nt,-0.7,-3.0
FC(F)Oc1ccc(-c2csc(NNC3=NCCCCC3)n2)cc1,6.2,48.8*,-27.9,8.5,-2.6,-5.3
O=C(CCN1CCCCC1)NCC[C@@H]1CC[C@@H](NC(=O)Cc2cccnc2)[C@@H](CO)O1,2.1,3.7,3.5,nt,-12.6[16.7 µM],nt
OCC1OC(n2cnc3c(NCc4ccccc4O)ncnc32)C(O)C1O (centres undefined),nt,nt,nt,-10.9,571.6*,-58.3

# High-throughput results (PubChem)
